Literature values in patent publication US20190015335A1, “HEPATOPROTECTIVE PARTICLES AND SYSTEMS AND METHODS OF USE THEREOF” (South Dakota Board of Regents, priority 2017, published 2019).

Target: T1, FXR (farnesoid X receptor) of hepatocytes (Homo sapiens, UniProt Q96RI1)
T1 construct: host or cells: human hepatocytes
T1 sequence (Q96RI1 1-486): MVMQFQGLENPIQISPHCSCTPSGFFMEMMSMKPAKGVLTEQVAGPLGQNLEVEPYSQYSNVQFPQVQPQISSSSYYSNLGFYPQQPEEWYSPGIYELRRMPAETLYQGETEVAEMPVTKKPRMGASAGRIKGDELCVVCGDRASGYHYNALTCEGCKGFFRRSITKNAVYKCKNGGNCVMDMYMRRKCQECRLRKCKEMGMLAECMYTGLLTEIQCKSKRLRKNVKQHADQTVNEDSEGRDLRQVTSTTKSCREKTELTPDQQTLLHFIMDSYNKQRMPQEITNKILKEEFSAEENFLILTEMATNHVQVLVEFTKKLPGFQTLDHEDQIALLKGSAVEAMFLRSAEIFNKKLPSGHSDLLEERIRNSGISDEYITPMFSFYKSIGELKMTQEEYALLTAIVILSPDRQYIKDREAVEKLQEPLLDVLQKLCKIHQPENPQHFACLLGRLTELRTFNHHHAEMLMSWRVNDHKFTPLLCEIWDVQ
Conditions: activation of FXR; cited from earlier work

In the case of `CC(C)c1onc(-c2c(Cl)cccc2Cl)c1COc1ccc(/C=C/c2cccc(C(=O)O)c2)c(Cl)c1` [GW4064], the “protection of human hepatocytes against chemotherapeutics-induced toxicity” value is given as “increases the protection of human hepatocytes against chemotherapeutics-induced toxicity”.
